# From patent publication US9504729B2, “Antiangiogenic small molecules and methods of use” (The United States of America, as represented by the …, priority 2009, dated 2016)
# System: PAE cells
# Assay: Growth dose response (IC50) in PAE
# Format: cell-based, porcine
# Conditions: Sus scrofa, read-out: Growth IC50 (M) in PAE
compound,measurement,value
"COc1ccc2c(c1)c1c(C)c3cnccc3c(C)c1n2CCCN [Compound 26, 3-(9-methoxy-5,11-dimethylpyrido[4,3-b]carbazol-2-ium-6-yl)propan-1-amine chloride]",IC50,8.38e-11 M
